Results: PubChem BioAssay AID376 (PDSP, 2006)
The list shows a part of the results, in another mix than the full data. The source made the active and inactive calls. Rule as the data show it: active = hERG blockade below about -20% or above about 20%; inactive = in between.

Sequences of proteins named here, by UniProt entry; tags and fusion partners are left off. A change or cut given only in a name is not applied to a line headed by its entry.
UniProt Q12809: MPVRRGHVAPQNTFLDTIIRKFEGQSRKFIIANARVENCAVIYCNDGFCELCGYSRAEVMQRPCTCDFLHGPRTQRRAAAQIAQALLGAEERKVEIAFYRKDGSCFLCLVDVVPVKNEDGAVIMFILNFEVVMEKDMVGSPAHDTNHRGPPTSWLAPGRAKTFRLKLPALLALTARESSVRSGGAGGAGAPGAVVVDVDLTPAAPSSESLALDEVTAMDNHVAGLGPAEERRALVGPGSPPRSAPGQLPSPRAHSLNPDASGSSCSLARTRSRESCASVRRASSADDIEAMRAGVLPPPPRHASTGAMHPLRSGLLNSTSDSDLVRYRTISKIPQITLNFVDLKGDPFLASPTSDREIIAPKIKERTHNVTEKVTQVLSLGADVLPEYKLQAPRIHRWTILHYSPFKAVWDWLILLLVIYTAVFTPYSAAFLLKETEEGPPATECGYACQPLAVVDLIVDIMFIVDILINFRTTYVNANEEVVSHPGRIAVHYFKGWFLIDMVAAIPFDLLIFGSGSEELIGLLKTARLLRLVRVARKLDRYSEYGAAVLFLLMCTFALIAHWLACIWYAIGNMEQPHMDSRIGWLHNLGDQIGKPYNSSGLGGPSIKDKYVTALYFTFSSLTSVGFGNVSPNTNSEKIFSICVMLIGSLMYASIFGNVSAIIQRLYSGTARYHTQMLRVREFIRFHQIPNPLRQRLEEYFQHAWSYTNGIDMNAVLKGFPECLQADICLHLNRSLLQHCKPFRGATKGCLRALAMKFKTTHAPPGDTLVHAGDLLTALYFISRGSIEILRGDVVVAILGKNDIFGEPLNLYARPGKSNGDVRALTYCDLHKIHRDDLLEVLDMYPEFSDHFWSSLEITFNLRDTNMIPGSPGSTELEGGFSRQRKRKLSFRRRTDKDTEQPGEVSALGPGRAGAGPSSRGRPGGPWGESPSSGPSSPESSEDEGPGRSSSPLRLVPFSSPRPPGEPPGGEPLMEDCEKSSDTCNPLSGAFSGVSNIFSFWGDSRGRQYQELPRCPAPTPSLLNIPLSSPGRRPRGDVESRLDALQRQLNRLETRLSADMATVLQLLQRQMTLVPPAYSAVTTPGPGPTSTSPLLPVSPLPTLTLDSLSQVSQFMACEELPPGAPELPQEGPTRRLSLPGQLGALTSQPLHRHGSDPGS

The molecules below were run against Voltage-gated inwardly rectifying potassium channel KCNH2 (Homo sapiens) (UniProt Q12809) (assay: modulators of KCNH2 ion channel function, cellular (AID 376;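 also: 0% = buffer alone and 100% = reference blocker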)). Conditions: hERG-expressing cells, channel activity single-concentration screen; concentration not given here.
In the case of `O=[N+]([O-])c1ccc(C[As](=O)(O)O)cc1`, the hERG blockade is reported as active: -27.7%. With `CN1CCCC(OC(=O)C(c2ccccc2)c2ccccc2)C1` (stereo not given) the hERG blockade was inactive: 0.0731%. For `[N-]=[N+]=NCC(O)CN=[N+]=[N-]` (stereo not given), the hERG blockade was inactive: -2.72%. With `C(Cc1nn[nH]n1)c1nn[nH]n1` the hERG blockade was inactive: -2.08%. In the case of `O=C(O)C(O)c1ccc([As](=O)(O)O)cc1` (stereo not given), the hERG blockade is reported as inactive: -7.66%. With `O=C(CO)Nc1ccc([As](=O)(O)O)cc1` the hERG blockade was inactive: -16.7%. In the case of `[N-]=[N+]=Nc1ccc([As](=O)(O)O)cc1`, the hERG blockade is reported as inactive: 0.946%. For `O=C(CC(=O)c1ccccc1)OC1CN2CCC1CC2` (stereo not given), the hERG blockade was active: -20%. For `NS(=O)(=O)Cc1ccc([As](=O)(O)O)cc1`, the hERG blockade was inactive: -9%. With `O=[As](O)(O)c1ccc([As](=O)(O)O)cc1` the hERG blockade was inactive: -2.8%. In the case of `CC(O)COc1ccc([As](=O)(O)O)cc1N` (stereo not given), the hERG blockade is reported as inactive: -10.4%. In the case of `NCCC(N)CSP(=O)(O)O` (stereo not given), the hERG blockade is reported as inactive: 16.6%. In the case of `[N-]=[N+]=NCC(N)=O`, the hERG blockade is reported as inactive: 3.64%. With `O=[As]c1ccc(S(=O)(=O)NCCO)cc1` (stereo not given) the hERG blockade was inactive: -19.7%. For `NC(=O)Nc1cc([As](=O)(O)O)cc(I)c1O`, the hERG blockade was inactive: 11.5%.
